Data on one compound can be found in ChEMBL document CHEMBL2311318, “Lead optimization of a dihydropyrrolopyrimidine inhibitor against phosphoinositide 3-kinase (PI3K) to improve the phenol glucuronic acid conjugation” (Bioorg Med Chem Lett, 2013).

Each structure is given as a SMILES string.

This series can be described thus: Clearance in BALB/c nu mouse at 10 mg/kg, iv. It counts as ADME, organism-based. Set-up: dose 10 mg/kg, route intravenous. Conditions: in vivo.

The clearance is the volume of plasma or blood freed of the substance per unit of time. High values mean a high capacity for elimination, low ones a low capacity for elimination.

`Nc1ncc(-c2nc(N3CCOCC3)nc3c2CCN3c2cccnc2)cn1` returned a clearance of 2.15 L/h/kg.
